# How the values were obtained:
# [1] = biological target: F-actin prepared from acetone powder of rabbit muscle (UniProt P68135); assay: stopped-flow light scattering at 340 nm, 15 °C; acto-HMM with MgADP mixed with MgATP
# [2] = biological target: F-actin prepared from acetone powder of rabbit muscle (rabbit) (UniProt P68135); assay: stopped-flow light scattering at 340 nm, 15 °C, 120 mM ionic strength; linear fit of acto-HMM dissociation rate against [MgATP], no ADP
# [3] = biological target: F-actin prepared from acetone powder of rabbit muscle (rabbit) (UniProt P68135); assay: stopped-flow light scattering at 340 nm, 15 °C; acto-HMM with MgADP mixed with MgATP
# [4] = biological target: F-actin prepared from acetone powder of rabbit muscle (rabbit) (UniProt P68135); assay: stopped-flow light scattering; acto-HMM with MgADP mixed with MgATP
K1·k+2 (apparent second-order rate constant of acto-HMM dissociation by MgATP alone) [2],K+5 (plateau of the rate of acto-HMM dissociation by MgATP in the presence of MgADP; limited by ADP release) [3],fold faster rate of acto-HMM-ADP dissociation against rat α myosin [4],Substance,Kobs for acto-HMM-ADP dissociation against 2.5 and 5.0 mM MgATP [1]
–,–,–,recombinant mutant G343S chicken smooth muscle myosin HMM,"Kobs for acto-HMM-ADP dissociation against 2.5 and 5.0 mM MgATP was identical for both mutant and wild-type SmM HMM's, yielding rates of 46 s^-1"
1.3e+06 M⁻¹ s⁻¹,404 s⁻¹,2 fold,mouse α cardiac myosin HMM (chymotryptic heavy meromyosin of native mouse ventricular α-myosin) (from UniProt Q02566 1-1285) (enzyme),–
820000 M⁻¹ s⁻¹,245 s⁻¹,–,rat α cardiac myosin HMM (chymotryptic heavy meromyosin of native hyperthyroid rat ventricular α-myosin) (from UniProt P02563 1-1285) (enzyme),–

# Source: patent publication US7276644
